Reference: US10392398B2, “Inhibitors of Late SV40 Factor (LSF) as cancer chemotherapeutics” (TRUSTEES OF BOSTON UNIVERSITY, priority 2010, dated 2019)
Like-named read-outs stand apart in the source and are kept apart here.

Sequences of proteins named here, by UniProt entry; tags and fusion partners are left off.
UniProt Q12800, whole entry: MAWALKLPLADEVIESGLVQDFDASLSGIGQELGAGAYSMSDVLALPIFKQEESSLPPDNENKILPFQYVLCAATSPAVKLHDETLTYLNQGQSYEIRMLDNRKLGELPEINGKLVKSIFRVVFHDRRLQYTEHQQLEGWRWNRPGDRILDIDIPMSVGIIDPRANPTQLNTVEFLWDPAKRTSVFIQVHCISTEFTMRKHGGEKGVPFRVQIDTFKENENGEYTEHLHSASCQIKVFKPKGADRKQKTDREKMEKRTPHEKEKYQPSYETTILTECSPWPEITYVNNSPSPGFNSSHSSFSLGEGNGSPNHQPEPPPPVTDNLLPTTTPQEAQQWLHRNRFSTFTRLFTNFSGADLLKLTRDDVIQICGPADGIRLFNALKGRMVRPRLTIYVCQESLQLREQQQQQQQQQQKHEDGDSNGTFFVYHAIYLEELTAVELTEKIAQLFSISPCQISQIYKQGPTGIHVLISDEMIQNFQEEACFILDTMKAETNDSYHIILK

Experiments:
LSF [1] = target: T1, LSF (Homo sapiens, UniProt Q12800); assay: LSF-dependent luciferase reporter assay in NIH 3T3 cells; details: read-out: LSF-reporter assay IC50
Method: NIH 3T3 cells were transfected with the expression construct pEF1α-LSF, a LSF expression vector^6,20; the reporter construct pGL3B-WT4E1b, a firefly luciferase reporter vector driven by LSF^12; phRL-TK, a control renilla luciferase reporter vector; and pEFGP, essentially as previously described^12. Five hours after transfection, either vehicle (DMSO) or FQI compound was added, keeping DMSO at 0.5%. Cell extracts were harvested 36 hours post-transfection and firefly and renilla luciferase activities measured via a dual luciferase assay (Promega). Five μl of extract was mixed with 30 μl of luciferase assay reagent (Promega), and luminescence measured for 10 seconds using a 20/20n luminometer (Turner Biosystems). Subsequently, 30 μl of Stop & Glo reagent (Promega) was added, and luminescence also measured for 10 seconds. LSF transactivation activity is given as relative luciferase activity, the ratio of firefly to renilla activities.
NIH-3T3 cells were cultured at 37° C. in 5% CO2 in DMEM (Dulbecco's modification of Eagle's Medium; Corning) supplemented with 10% FCS (FCS; Atlanta Biologicals). Approximately 24 hours prior to transfection, 200,000 cells were plated in 35 mm dishes. After 24 hours, cells were ˜70% confluent, and were transfected for 5 hours with pEF1α-LSF, the reporter construct pGL3B-WT4E1b, phRLTK, and pEFGP (Grant, T. J. et al. Antiproliferative small-molecule inhibitors of transcription factor LSF reveal oncogene addiction to LSF in hepatocellular carcinoma. PNAS (2012), 109, 1-6). Vehicle (DMSO) or FQI-34 was then added, keeping the DMSO at 0.5%. Cell extracts were harvested 36 h post-transfection, and firefly and renilla luciferase activities were measured via a dual luciferase assay (Promega Dual-Luciferase Reporter Assay System). Relative luciferase activity represents firefly luciferase activity normalized to that of renilla luciferase in each extract. IC50 values were determined from plots of normalized luciferase activity vs. compound concentration (Prism GraphPad; non-linear regression 4-parameter curve fit with variable slope). LSF-Target affinity IC50 was 0.59 μM (FIG. 12).

QGY-7703 cells = assay: Cell viability GI50 (MTS), QGY-7703; details: read-out: QGY-7703 GI50
Method: QGY-7703 and A549 cells were cultured at 37° C. in 5% CO2 in DMEM (Dulbecco's modification of Eagle's Medium; Corning) supplemented with 10% Fetal Bovine Serum (FBS; Invitrogen). NIH-3T3 cells were cultured at 37° C. in 5% CO2 in DMEM supplemented with 10% Fetal Calf Serum (FCS; Atlanta Biologicals). For cell viability assays, 1,500 cells were seeded in 96-well plates and treated with FQI-34 or vehicle (DMSO) at appropriate concentrations (DMSO at 1%) after 20 hours. After 72-hour incubation with compound or vehicle, cell growth was assessed via the Promega CellTiter 96® AQueous One Solution Cell Proliferation Assay, a colorimetric method to determine the number of viable cells. 20 μL of the CellTiter 96® AQueous One Solution Reagent was added directly into cultured wells and incubated for one hour, after which the absorbance at 490 nm was read with a 96-well plate reader (Opys MR Microplate Reader). The CellTiter 96® AQueous One Solution contains an MTS tetrazolium compound which is bioreduced by cells into a colored formazan product that is soluble in tissue culture medium. The quantity of formazan product as measured by absorbance is directly proportional to the number of living cells in culture. GI50 values were determined from plots of the percentage of compound-treated cell growth to vehicle cell growth vs. compound concentration (GraphPad Prism; non-linear regression 4-parameter curve fit with variable slope). GI50 values were 0.26 μM in QGY-7703 cells, 1.8 μM in A549 cells and 1.49 μM in NIH-3T3 cells (FIGS. 11A-11C)

LSF [2] = target: T1, LSF; assay: Cellular Thermal Shift Assay (CETSA), LSF; details: Table 5, YES/NO
Method: Drug-target engagement was assessed using CETSA as described by Molina et al. (Monitoring Drug-Target Engagement in Cells and Tissues Using Cellular Thermal Shift Assay. Science (2013) 341, 84-87). QGY-7703 cells were cultured at 37° C. in 5% CO2 in DMEM (Dulbecco's modification of Eagle's Medium; Corning) supplemented with 10% Fetal Bovine Serum (FBS; Invitrogen). Cells were seeded into 10 cm plates and allowed to reach 60-80% confluency. After trypsinization (0.05% Trypsin-EDTA, Invitrogen), cell pellet was washed twice with ice-cold 1×PBS (137 mM NaCl, 2.7 mM KCl, 10 mM Na2HPO4, 2 mM KH2PO4, pH 7.2). Cell pellet was lysed by addition of 200 μL freshly prepared ice-cold RIPA buffer (10 mM Tris-Cl pH 8.0, 1 mM EDTA, 0.5 mM EGTA, 1% Triton X-100, 0.1% sodium deoxycholate, 0.1% SDS, 140 mM NaCl) supplemented with 1 mM Pefabloc (Sigma-Aldrich), and flash frozen in liquid nitrogen and thawed for a total of three cycles. Cell lysate was centrifuged at 20,000×g for 20 minutes to clarify. Supernatant was either treated immediately or saved at −80° C. for future use. […]
Immunoblots were quantified using Image J and graphed using GraphPad PRISM. Area-under-the-curve (AUC) for the quantified western blots were calculated with GraphPad PRISM and non-parametric t-test was calculated to determine statistical significance between the curves. […]

Row | IC50 (LSF [1]; Table 5) [µM] | IC50 (LSF [1]; Table 8) [µM] | LSF CETSA (LSF [2]) | SMILES | GI50 (QGY-7703 cells; Table 5) [µM] | GI50 (QGY-7703 cells; Table 8) [µM]
1 | 1.82 | 1.82 | YES | CCOc1cc(Br)ccc1C1CC(=O)Nc2cc3c(cc21)OCO3 (stereo not shown) | 0.65 | 0.65
2 | 1.73 | 1.73 | YES | CCOc1cc(Cl)ccc1C1CC(=O)Nc2cc3c(cc21)OCO3 (stereo not shown) | 0.31 | 0.31
3 | – | 2.91 | – | CCOc1cc(F)ccc1C1CC(=O)Nc2cc3c(cc21)OCO3 (stereo not shown) | 1.5 | 1.5
